Molecules are shown by their SMILES. The entries are a selection whose mix differs from that of the whole data set. Calls of active or inactive are those of the source. No stated cut-off is given here; in the data, active means normalised signal below about 0.5; inactive means the rest, inconclusive results apart.

The chains behind the UniProt entries cited, without tags or fusion partners.
UniProt O95931, whole entry: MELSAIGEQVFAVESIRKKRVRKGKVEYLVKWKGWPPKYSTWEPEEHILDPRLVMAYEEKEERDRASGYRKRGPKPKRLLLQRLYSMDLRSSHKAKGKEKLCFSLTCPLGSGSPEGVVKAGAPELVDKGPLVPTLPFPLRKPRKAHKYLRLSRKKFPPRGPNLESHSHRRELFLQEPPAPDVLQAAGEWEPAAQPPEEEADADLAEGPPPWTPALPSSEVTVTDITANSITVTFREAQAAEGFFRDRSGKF

The target in the test is Chromobox protein homolog 7 (Homo sapiens) (UniProt O95931). Briefly: CBX7 chromodomain binding inhibitors, primary screen, biochemical, AlphaScreen (AID 1224903). As to conditions: AlphaScreen His6-CBX7 / biotin-H3K27me3 peptide binding; stronger effect = lower value. Background: In Alpha technology, singlet oxygen from a donor bead excites a nearby acceptor bead.
As for `NC(=O)C1(Nc2ccccc2)CCN(Cc2ccccc2)CC1`, the normalised signal (fraction of DMSO) is inactive: 0.945.

Turning to `COc1ccc(NC2CCN(CCCC(=O)c3ccc(F)cc3)CC2)cc1`, the normalised signal (fraction of DMSO) was inactive: 0.632.

`O=C(CCCN1CCC(Nc2ccccc2)CC1)c1ccc(F)cc1`: the normalised signal (fraction of DMSO) was inactive: 0.838. For the molecule `CN1CCN(CCOC(=O)C(O)(c2ccccc2)c2ccccc2)CC1`, the normalised signal (fraction of DMSO) was inactive: 0.988.

Values taken from PubChem BioAssay AID1224903 (Bradner/Qi Labs at DFCI, 2016).
